Results taken from patent US20130123253A1, “MODULATORS OF CENTRAL NERVOUS SYSTEM NEUROTRANSMITTERS” (HUMAN BIOMOLECULAR RESEARCH INSTITUTE, priority 2004, published 2013).

In the case of `COc1ccc(F)cc1CCC1CCC(CCN)O1` (centres unmarked) [Compound 14, 2-Aminoethyl-5-(2′-methoxy-5′-fluorophenethyl)tetrahydrofuran], the “half life, rat liver microsomes” value (NADPH) is reported as 1.77 h and the “RLM t1/2” value (Table 16) is reported as 1.772 h.
